In patent US7867980B2, “Lincosamide derivatives and antimicrobial agents comprising the same as active ingredient” (Meiji Seika Kaisha, Ltd., priority 2007, dated 2011):
In brackets after ≈: the same amount, converted by molar mass.

Experiments:
Assay in all cases: Antimicrobial activity, minimum growth inhibitory concentration (MIC), agar dilution
Format in all cases: cell-based
S. pneumoniae 1700 = conditions: Streptococcus pneumoniae, 1700, read-out: minimum growth inhibitory concentration (MIC)
Description: (§1) For representative compounds among lincomycin derivatives according to the present invention, the minimum growth inhibitory concentration (MIC, μg/ml) against various pneumococci was measured according to the method described in CHEMOTHERAPY, vol. […] Sensitivity disk agar-N+5% horse blood was used as the medium for the measurement. The amount of bacteria inoculated was about 10^6 CFU/ml.

S. pneumoniae 1820 = conditions: Streptococcus pneumoniae, 1820, read-out: minimum growth inhibitory concentration (MIC)
Description: as §1

S. pneumoniae 1913 = conditions: Streptococcus pneumoniae, 1913, read-out: minimum growth inhibitory concentration (MIC)
Description: as §1

S. pneumoniae 225 = conditions: Streptococcus pneumoniae, 225, read-out: minimum growth inhibitory concentration (MIC)
Description: as §1

S. pneumoniae DP1 TypeI = conditions: Streptococcus pneumoniae, DP1TYPEI, read-out: minimum growth inhibitory concentration (MIC)
Description: as §1

S. pneumoniae IP692 = conditions: Streptococcus pneumoniae, IP692, read-out: minimum growth inhibitory concentration (MIC)
Description: as §1

S. pneumoniae PRC-206 = conditions: Streptococcus pneumoniae, PRC206, read-out: minimum growth inhibitory concentration (MIC)
Description: as §1

S. pneumoniae PRC-53 = conditions: Streptococcus pneumoniae, PRC53, read-out: minimum growth inhibitory concentration (MIC)
Description: as §1

S. pneumoniae TH-662 = conditions: Streptococcus pneumoniae, TH662, read-out: minimum growth inhibitory concentration (MIC)
Description: as §1

MIC (S. pneumoniae 1700): 256 µg/mL (≈ 602 µM)
MIC (S. pneumoniae 1820): 256 µg/mL (≈ 602 µM)
MIC (S. pneumoniae 1913): 0.13 µg/mL (≈ 0.306 µM)
MIC (S. pneumoniae 225): 256 µg/mL (≈ 602 µM)
MIC (S. pneumoniae DP1 TypeI): 0.13 µg/mL (≈ 0.306 µM)
MIC (S. pneumoniae IP692): 0.13 µg/mL (≈ 0.306 µM)
MIC (S. pneumoniae PRC-206): 256 µg/mL (≈ 602 µM)
MIC (S. pneumoniae PRC-53): 0.03 µg/mL (≈ 0.0706 µM)
MIC (S. pneumoniae TH-662): 256 µg/mL (≈ 602 µM)
Structure (SMILES): CCC[C@@H]1C[C@@H](C(=O)N[C@@H]([C@H]2O[C@H](SC)[C@H](O)[C@@H](O)[C@H]2O)[C@H](C)Cl)N(C)C1 [CLDM, clindamycin, reference compound]
